For the series, the species on record is Homo sapiens. Description: Protein binding in human plasma. As to conditions: read-out: PPB.

As to `COc1ccc2c(c1)c(CC(=O)O)c(C)n2-c1ccnc2cc(Cl)ccc12`, the fraction unbound worked out at 0.01.
